# Laboratory results from PubChem BioAssay AID1259400 (National Center for Advancing Translational Sciences (NCATS), 2018).
# Chains of the proteins cited; added tags and fusions are not shown.
# UniProt Q9HBX9, whole entry: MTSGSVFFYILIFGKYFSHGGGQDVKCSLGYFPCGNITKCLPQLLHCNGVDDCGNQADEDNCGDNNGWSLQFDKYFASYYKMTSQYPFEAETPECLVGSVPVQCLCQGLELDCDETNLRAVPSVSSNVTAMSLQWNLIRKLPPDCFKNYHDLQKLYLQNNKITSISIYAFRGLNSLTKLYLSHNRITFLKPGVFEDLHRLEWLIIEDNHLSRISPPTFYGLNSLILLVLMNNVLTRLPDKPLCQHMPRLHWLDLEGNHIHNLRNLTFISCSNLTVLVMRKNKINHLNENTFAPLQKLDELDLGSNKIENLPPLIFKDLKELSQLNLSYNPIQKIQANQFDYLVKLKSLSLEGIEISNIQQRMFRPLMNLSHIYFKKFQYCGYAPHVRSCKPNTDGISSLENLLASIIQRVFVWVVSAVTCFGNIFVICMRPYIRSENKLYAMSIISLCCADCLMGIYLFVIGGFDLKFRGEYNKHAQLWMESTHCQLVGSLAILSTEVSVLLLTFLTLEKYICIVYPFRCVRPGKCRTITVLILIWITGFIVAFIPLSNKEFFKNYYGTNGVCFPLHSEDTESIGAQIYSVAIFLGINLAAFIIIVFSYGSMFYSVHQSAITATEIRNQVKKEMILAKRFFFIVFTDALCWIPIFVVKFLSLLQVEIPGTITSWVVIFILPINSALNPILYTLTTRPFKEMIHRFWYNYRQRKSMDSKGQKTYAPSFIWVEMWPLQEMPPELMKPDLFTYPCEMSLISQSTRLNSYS
# The list shows a part of the results, in another mix than the full data. Activity calls are given as the source filed them.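 Rule for the calls: active = activity change of -60% or lower, but not beyond a set lower limit; inconclusive = change between -60% and -40%, or beyond the set limit; inactive = change above -40%.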
# Biological target: Relaxin receptor 1 (Homo sapiens) (UniProt Q9HBX9)
# Assay: qHTS Assay for Antagonists of the Relaxin Receptor RXFP1
# Details: HEK293-RXFP1, relaxin-stimulated cAMP HTRF, 30 min; at 57.5 µM; hits give low values
# Text: The relaxin hormone is involved in the variety of biological functions in normal tissues and diseases. The role of relaxin is well-established in female reproduction and parturition, mammary gland and endometrial development, maintenance of myometrial quiescence during pregnancy. Relaxin signaling through its G protein-coupled receptor (GPCR) RXFP1 results in ECM remodeling through regulation of collagen deposition, cell invasiveness, proliferation and overall tissue homeostasis. […] Recombinant human relaxin (rhRlx) is currently being tested in clinical trials as a protective agent in congestive heart failure, in treating severe preeclampsia, and as an anti-fibrotic agent in various organs. […] Upon relaxin binding RXFP1 activation leads to the activation of adenylate cyclase (AC) via G?s. cAMP will activate PKA, which phosphorylates many signaling proteins. Thus, detection of cAMP increase is an easy and reliable indication of relaxin receptor activation. To screen for antagonists of the relaxin receptor, a HEK293T cell line stably transfected with RXFP1 was used. RXFP1 activation by relaxin in presence of various concentrations of tested compounds was assayed by changes in cAMP levels as detected with a time-resolved fluorescence energy transfer (TR-FRET) cAMP detection kit.
# For the primary screening, we used HTRF(R) (Homogenous Time-Resolved Fluorescence) cAMP HiRange assay (Cisbio Bioassays, 62AM6PEJ). Presence of cAMP in the cell lysate disrupts binding between the Cryptate-labeled anti-cAMP and d2-labeled cAMP pair, leading to a decrease in TR-FRET signal. The libraries were screened at two doses (57microM and 11microM), followed by a confirmation of the hits at 7-point serial dilution in the range of final concentrations [57microM - 78nM]. Data were normalized to the controls for basal activity (buffer only) and 100% activity (5 nM porcine relaxin). The EC50 values were determined from concentration-response data modeled with the standard Hill equation. NCGC Assay Protocol Summary: HiHEK (Hawaiian HEK293 LGR7 stably transfected with human RXFP1) were grown in the following media: DMEM+10%FBS+Pen/Strep + Geneticin (1mg/ml). For the assay, the cells were seeded in DMEM+Pen/Strep (with no serum & selective antibiotics) at 2,100 cells/ 3microl/well with MultiDrop Combi dispenser (Thermo Scientific, Logan, UT) onto white tissue culture treated solid bottom1536-well plates (Greiner #789173-F) and allowed to attach/recover overnight at 37 degrees C, 5% CO2. Next, 23nl/well of compound solutions in DMSO were transferred into wells with a pintool (Kalypsis, San Diego, CA). […] EC80 (relaxin at 50pM final concentration) was dispensed to the rest of the plate except columns 1&2 which were used as a negative control (EC0, buffer only), 1microl/well also. The cells were stimulated by relaxin in the presence of compounds for 30 minutes at 37 degrees C, 5% CO2. The detection reagents were prepared individually by dilution in Lysis buffer (supplied with the assay kit) just prior to dispensing. 1microl/well of cAMP-d2 and 1microl/well anti-cAMP-Eu3+-Cryptate antibodies were added simultaneously with BioRAPTR FRDtrade mark Workstation (Beckman Coulter). The plates were incubated at ambient temperature for 30 minutes and, then, FRET signal was read on Envision plate reader (PerkinElmer, Waltham, MA), at wavelengths 340nm (excitation), 615nm & 665nm (emission of donor and acceptor channels respectively).
row,Structure (SMILES),"activity change, negative = inhibition"
1,CCC(CO)(C(=O)OC1CN2CCC1CC2)c1ccccc1 (stereo unspecified),inactive: 2.03%
2,COc1cccc(C(=O)N(c2cc(C)cc(C)c2)C2CCN(C(=O)OC(C)(C)C)CC2)c1,inactive: -23.4%
3,COc1cc(OC)cc(C(=O)NCC2(N3CCOCC3)CCCCC2)c1,inactive: -15.4%
4,CCCOc1ccc(C(=O)NCC2(N(C)C)CCCCC2)cc1,inactive: -17.6%
5,O=C(O)C1(Nc2ccccc2)CCN(Cc2ccccc2)CC1,inactive: 4.31%
6,CC(C)(C)OC(=O)N1CCC(Nc2ccccc2)CC1,inactive: -4.19%
7,CN1CCC(Nc2ccc(F)c(Cl)c2)CC1,inactive: -9.43%
8,CCOc1ncccc1C(=O)NCC1(N2CCOCC2)CCCCC1,inactive: -3.78%
9,Cn1c(=O)[nH]cc(N(CCCl)CCCl)c1=O,inactive: -2.41%
10,CN(C)c1ccc(C(=O)NCC2(N3CCCCC3)CCCCC2)cc1,inactive: -14.8%
11,O=C(NCC1(N2CCCCC2)CCCCC1)c1ccco1,inactive: -1.58%
12,Cc1ccccc1C(=O)NCC1(N(C)C)CCCCC1,inactive: 2.36%
13,CCN1CCC(Nc2cccc(F)c2)CC1,inactive: -6.71%
14,Cc1ccccc1NC1(C#N)CCN(Cc2ccccc2)CC1,inactive: 13.2%
15,Cc1ccc(NC2(C#N)CCN(Cc3ccccc3)CC2)cc1,inactive: -20.7%
16,Cc1ccc(Nc2c([N+](=O)[O-])cc([N+](=O)[O-])cc2[N+](=O)[O-])cc1,inactive: 3.15%
17,Fc1ccccc1NC1CCN(Cc2ccccc2)CC1,inactive: -1.04%
18,Cc1ccc(C(=O)NCC2(N3CCCCC3)CCCCC2)o1,inactive: 3.49%
19,COc1cc(OC)cc(C(=O)NCC2(N3CCCCC3)CCCCC2)c1,inactive: 5.37%
20,CC(=O)N(c1ccccc1)C1CCNCC1,inactive: 0.195%
21,CN(C)C1(CNC(=O)c2ccc(C(C)(C)C)cc2)CCCCC1,inactive: -17.6%
